From ChEMBL document CHEMBL5728992, “Fused imidazo-piperidine JAK inhibitors” (2022)

Molecular target: T1, Tyrosine-protein kinase JAK3 (Homo sapiens, UniProt P52333)
T1 sequence (P52333 whole entry): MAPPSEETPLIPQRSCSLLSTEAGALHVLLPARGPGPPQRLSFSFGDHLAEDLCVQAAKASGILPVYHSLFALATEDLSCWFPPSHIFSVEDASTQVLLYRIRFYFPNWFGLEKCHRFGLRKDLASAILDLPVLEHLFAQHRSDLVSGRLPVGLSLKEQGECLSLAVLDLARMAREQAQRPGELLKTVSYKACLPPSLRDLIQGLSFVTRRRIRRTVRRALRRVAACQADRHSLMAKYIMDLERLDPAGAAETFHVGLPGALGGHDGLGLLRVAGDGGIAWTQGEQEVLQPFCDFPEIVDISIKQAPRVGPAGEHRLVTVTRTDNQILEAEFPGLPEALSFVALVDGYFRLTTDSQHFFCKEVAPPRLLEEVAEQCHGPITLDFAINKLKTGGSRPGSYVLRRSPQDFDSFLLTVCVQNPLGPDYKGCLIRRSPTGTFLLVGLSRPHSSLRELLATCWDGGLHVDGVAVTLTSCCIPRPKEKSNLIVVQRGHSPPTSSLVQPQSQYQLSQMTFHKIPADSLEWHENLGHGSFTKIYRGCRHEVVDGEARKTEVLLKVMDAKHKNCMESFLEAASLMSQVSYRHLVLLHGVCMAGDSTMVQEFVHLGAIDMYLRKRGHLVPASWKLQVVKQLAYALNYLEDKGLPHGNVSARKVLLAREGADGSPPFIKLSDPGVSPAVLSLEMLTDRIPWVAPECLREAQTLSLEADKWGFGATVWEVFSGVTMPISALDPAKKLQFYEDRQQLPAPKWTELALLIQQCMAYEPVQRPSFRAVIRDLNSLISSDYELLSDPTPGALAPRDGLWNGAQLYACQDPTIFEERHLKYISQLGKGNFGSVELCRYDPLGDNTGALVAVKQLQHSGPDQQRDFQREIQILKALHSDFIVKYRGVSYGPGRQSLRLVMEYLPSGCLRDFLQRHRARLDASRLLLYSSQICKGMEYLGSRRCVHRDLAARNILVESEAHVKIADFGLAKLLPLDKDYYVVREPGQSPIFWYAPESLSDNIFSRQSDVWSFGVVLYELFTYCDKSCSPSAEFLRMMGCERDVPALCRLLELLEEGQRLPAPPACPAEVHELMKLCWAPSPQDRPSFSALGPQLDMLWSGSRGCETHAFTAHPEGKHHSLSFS
Experiment: Recombinant GST-tagged JAK enzymes and a GFP-tagged STAT1 peptide substrate were obtained from Life Technologies.Serially diluted compounds were pre-incubated with each of the four JAK enzymes and the substrate in white 384-well microplates (Corning) at ambient temperature for 1 h. ATP was subsequently added to initiate the kinase reactions in 10 μL total volume, with 1% DMSO. […] Kinase reactions were allowed to proceed for 1 hour at ambient temperature before a 10 μL preparation of EDTA (10 mM final concentration) and Tb-anti-pSTAT1 (pTyr701) antibody (Life Technologies, 2 nM final concentration) in TR-FRET dilution buffer (Life Technologies) was added. The plates were allowed to incubate at ambient temperature for 1 h before being read on the EnVision reader (Perkin Elmer).

For `CCc1cc(O)c(F)cc1-c1ccc2c(-c3nc4c([nH]3)CN(C)[C@H](C(=O)N3CCN(C)C[C@@H]3C)C4)n[nH]c2c1`, the Ki was 0.16 nM.
